Tests used:
Test in all cases: KINOMEscan competition binding
Settings in all cases: compound 10.0 µM
[1] = molecular target: PIK3C2G (human) (UniProt O75747)
[2] = molecular target: FGFR4 (human) (UniProt P22455)
[3] = molecular target: FGFR2 (human) (UniProt P21802)

The chains behind the UniProt entries cited, without tags or fusion partners. Where a name states a change or a piece, a line headed by the entry shows the natural chain unless it says otherwise.
UniProt O75747: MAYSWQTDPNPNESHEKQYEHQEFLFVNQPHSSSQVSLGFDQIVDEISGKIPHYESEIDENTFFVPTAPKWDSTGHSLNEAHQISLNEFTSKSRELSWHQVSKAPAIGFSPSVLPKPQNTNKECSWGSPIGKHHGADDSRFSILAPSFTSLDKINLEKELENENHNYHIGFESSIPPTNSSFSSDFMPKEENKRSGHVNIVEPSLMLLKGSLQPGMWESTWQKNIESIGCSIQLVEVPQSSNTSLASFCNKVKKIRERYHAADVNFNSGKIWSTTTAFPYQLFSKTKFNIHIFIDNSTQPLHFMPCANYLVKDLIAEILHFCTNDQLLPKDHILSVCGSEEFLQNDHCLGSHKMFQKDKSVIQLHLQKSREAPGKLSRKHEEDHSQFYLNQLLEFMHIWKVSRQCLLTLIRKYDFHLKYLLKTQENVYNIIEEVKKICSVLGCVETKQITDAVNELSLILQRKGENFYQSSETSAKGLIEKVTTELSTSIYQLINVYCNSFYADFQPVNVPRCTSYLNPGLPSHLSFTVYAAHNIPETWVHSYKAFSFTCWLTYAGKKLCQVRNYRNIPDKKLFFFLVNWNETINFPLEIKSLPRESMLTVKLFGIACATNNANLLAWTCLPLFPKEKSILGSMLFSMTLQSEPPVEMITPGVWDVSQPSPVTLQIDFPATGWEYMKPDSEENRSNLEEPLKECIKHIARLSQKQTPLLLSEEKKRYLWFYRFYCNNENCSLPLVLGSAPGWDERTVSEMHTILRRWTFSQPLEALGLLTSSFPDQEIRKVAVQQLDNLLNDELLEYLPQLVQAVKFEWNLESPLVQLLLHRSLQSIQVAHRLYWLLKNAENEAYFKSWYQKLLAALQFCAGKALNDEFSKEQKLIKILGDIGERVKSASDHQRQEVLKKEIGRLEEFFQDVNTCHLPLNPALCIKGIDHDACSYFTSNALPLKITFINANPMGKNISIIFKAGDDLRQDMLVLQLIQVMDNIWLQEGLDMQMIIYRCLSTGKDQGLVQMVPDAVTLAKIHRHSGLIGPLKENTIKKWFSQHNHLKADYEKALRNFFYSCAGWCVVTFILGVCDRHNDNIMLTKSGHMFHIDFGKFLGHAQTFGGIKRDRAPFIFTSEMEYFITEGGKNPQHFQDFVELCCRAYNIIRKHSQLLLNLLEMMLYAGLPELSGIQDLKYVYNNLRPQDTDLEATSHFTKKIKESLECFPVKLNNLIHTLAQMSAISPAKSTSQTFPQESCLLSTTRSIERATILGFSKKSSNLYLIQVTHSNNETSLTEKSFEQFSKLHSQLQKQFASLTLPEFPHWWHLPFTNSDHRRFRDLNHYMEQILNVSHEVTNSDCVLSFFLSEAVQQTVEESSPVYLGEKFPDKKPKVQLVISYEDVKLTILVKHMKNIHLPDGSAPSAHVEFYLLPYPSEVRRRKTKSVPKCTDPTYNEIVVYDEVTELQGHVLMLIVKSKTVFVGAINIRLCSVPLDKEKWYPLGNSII
UniProt P22455, whole entry, looked up: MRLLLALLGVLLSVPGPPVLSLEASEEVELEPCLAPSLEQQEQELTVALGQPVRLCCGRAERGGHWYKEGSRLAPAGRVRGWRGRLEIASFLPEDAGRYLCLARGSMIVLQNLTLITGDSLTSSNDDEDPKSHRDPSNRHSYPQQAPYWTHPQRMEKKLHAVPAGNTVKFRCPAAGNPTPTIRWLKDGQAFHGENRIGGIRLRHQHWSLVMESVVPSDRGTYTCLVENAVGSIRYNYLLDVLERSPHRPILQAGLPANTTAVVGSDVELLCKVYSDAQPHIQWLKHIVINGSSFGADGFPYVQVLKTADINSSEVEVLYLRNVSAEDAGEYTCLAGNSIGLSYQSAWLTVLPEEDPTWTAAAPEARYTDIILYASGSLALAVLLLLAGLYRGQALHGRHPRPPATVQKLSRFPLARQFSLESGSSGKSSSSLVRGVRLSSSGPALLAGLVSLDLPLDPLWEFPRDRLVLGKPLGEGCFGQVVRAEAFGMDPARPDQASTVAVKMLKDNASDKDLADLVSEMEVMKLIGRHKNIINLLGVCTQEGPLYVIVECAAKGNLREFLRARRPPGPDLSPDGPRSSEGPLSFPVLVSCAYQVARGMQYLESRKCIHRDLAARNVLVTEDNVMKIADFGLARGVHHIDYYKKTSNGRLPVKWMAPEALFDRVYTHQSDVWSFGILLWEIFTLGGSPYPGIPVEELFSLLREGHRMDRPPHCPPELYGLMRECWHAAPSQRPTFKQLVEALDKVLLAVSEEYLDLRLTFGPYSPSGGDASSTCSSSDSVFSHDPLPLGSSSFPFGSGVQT
UniProt P21802, whole entry, looked up: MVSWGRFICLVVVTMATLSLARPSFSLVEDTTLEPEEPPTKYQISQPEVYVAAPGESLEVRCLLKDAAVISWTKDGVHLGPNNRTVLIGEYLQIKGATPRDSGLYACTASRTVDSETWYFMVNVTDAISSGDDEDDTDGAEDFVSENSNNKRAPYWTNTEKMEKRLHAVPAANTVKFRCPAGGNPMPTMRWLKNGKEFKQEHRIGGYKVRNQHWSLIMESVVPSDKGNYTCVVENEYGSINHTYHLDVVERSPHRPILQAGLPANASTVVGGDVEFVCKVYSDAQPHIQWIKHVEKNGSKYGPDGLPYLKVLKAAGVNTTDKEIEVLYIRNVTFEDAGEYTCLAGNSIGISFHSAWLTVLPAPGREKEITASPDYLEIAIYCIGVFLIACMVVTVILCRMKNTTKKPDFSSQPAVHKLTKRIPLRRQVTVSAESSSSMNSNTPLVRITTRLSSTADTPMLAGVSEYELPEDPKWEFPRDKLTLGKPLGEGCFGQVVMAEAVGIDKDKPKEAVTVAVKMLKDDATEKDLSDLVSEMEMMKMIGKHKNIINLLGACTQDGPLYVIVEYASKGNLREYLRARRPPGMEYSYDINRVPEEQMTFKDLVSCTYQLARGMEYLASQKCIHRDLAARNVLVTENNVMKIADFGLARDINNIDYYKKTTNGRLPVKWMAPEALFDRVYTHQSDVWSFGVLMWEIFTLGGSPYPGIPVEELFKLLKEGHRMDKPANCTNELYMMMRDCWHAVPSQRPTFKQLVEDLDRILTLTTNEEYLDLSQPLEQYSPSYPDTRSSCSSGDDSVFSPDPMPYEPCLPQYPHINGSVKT

Structure (SMILES) | kinase still bound, per cent of control [1] | kinase still bound, per cent of control [2] | kinase still bound, per cent of control [3]
CS(=O)(=O)N1CCN(Cc2cc3nc(-c4cccc5[nH]ncc45)nc(N4CCOCC4)c3s2)CC1 | 27% |  | 
CCN(CC)CCCCNc1ncc2cc(-c3cc(OC)cc(OC)c3)c(NC(=O)NC(C)(C)C)nc2n1 |  | 17% | 2.9%
